# Patent US10377755B2, “BCL-2 inhibitors” (Newave Pharmaceutical Inc., priority 2016, dated 2019)
# Amino acid sequences for entries named in this document (tags omitted).
# UniProt P10415, whole entry: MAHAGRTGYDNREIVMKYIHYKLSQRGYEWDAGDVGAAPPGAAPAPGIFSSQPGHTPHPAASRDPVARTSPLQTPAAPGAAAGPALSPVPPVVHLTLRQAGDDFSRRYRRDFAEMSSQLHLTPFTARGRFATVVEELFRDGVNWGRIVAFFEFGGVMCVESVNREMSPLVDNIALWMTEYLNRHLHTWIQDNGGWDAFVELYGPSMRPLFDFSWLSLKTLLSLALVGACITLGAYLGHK
# Experiments:
# [1] = biological target: T1, Bcl-2 (Homo sapiens (Human), UniProt P10415); test: Bcl-2 competition binding (fluorescence polarization) assay; details: BH3 peptide, 3 hours incubation at room temperature
# Procedure: Biological Example 1: Bcl-2 Competition Binding (Fluorescence Polarization) Assay
# This binding assay was performed in 96-well plate and with each assay contained 15 and 30 nM of labeled peptide and purified Bcl-2 protein (purchased from R&D Systems, Inc). The assay buffer contained 20 mM Hepes (pH 7.0), 50 mM KCl, 5 mM MgCl2, 20 mM Na2MoO4, 0.1 mg/ml Bovine Gamma Globulin and 0.01% NP40. Compounds were diluted in DMSO and added to the final assay with concentration range from 20 uM to 2 nM. The polarization degree (mP) value was determined by BioTek Synergy II with background subtraction after 3 hours of incubation at room temperature. IC50 was calculated using Prism software with sigmoidal dose-response curve fitting. ABT-737 was used as reference compound. Such assays, carried out with a range of doses of test compounds, allow the determination of an approximate IC50 value.
# [2] = biological target: T1, Bcl-2; details: cited from earlier work
smiles,measurement,setting,value
CC1(C)CCC(c2ccc(Cl)cc2)=C(CN2CCN(c3ccc(C(=O)NS(=O)(=O)c4ccc(N[C@H](CCN5CCOCC5)CSc5ccccc5)c(S(=O)(=O)C(F)(F)F)c4)cc3)CC2)C1 [ABT-263],IC50,[1],< 10 nM
same,Ki,[2],≤ 1 nM
